From US8476302B2, “α-ketoamide derivatives useful endothelial lipase inhibitors” (Janssen Pharmaceutica N.V., priority 2010, dated 2013) come the findings set out here.

By UniProt entry, the sequences of proteins in these tests, tags left out. Residues count along the entry.
UniProt Q9Y5X9, 21-500 limits assumed: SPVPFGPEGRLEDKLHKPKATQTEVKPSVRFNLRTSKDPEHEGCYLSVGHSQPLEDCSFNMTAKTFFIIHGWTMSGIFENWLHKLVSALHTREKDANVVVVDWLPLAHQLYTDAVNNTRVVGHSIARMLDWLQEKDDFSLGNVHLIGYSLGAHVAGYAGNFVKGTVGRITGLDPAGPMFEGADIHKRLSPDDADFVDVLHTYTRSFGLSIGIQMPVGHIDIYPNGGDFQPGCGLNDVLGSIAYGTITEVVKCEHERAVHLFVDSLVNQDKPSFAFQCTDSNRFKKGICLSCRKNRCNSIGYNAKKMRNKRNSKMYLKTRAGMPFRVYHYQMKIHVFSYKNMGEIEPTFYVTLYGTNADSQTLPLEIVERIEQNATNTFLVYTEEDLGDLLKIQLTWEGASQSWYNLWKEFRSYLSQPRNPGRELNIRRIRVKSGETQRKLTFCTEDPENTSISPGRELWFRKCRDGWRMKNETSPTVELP
UniProt Q9WVG5, 21-500 limits assumed: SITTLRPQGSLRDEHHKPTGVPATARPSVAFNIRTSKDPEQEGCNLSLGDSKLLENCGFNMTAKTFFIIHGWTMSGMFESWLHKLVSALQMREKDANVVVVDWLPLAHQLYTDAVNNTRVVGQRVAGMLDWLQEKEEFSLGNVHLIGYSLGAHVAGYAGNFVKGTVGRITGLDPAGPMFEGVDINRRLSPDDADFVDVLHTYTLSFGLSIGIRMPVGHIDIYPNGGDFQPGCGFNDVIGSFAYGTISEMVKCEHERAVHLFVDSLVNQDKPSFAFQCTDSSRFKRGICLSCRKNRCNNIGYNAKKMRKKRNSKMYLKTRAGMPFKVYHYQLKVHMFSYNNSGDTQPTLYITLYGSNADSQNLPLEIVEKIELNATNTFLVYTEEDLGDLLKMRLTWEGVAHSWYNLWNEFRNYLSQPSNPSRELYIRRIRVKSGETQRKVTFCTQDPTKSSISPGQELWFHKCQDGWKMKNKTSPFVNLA

Assay [1] deals with human endothelial lipase (EL) (Homo sapiens, UniProt Q9Y5X9). Kind of assay: Endothelial Lipase Assay, cell surface lipase activity (human). To be noted: read-out: Human IC50; cells expressing human EL, PLA1 substrate 10 μM, fluorescence reaction rate; several values in a cell are repeat determinations. As to the method: (§1) Endothelial Lipase Assay (Human/Mouse)
(§2) To assay for cell surface lipase activity, cells expressing human endothelial lipase (EL) or LPL were plated in CellBIND® 384-well plates (Corning, Lowell, Mass.) in 25 μL serum free medium at a density of 2000 cells/well. After 18-24 hours incubation at 37° C., the medium was removed and replaced with 15 μL assay buffer [Hank's Buffered Saline Solution with 25 mM HEPES pH 7.2] and 15 μL PLA1 for a final concentration of 10 μM using a Multidrop reagent dispenser. Fluorescence signal was monitored for 30 min at 37° C. on a Safire II plate reader in kinetic mode (60 cycles, kinetic interval: 30 seconds) with an excitation wavelength of 490 nm and an emission wavelength of 515 nm. Linear regression of the fluorescence intensity collected from 480 to 1500 seconds was used to calculate the reaction rate (the slope) and the slopes were used to calculate IC50 values where appropriate. The amount of BODIPY-labeled product generated was calculated at the 30 min time point as determined from standard curve analysis of purified BODIPY FL C5. In all studies using the inhibitor Ebelactone B, consistent results were obtained when it was dissolved as a stock in DMSO, immediately before use.

The next assay deals with Mouse EL (Mus musculus, UniProt Q9WVG5). Kind of assay: Endothelial Lipase Assay, cell surface lipase activity (mouse). To be noted: read-out: Mouse IC50, PLA1 substrate 10 μM, fluorescence reaction rate, several values in a cell are repeat determinations. As to the method:
as §1, §2

One may read the IC50 as the point on the concentration scale where inhibition reaches its midpoint.

Regarding `O=C(CCCCCCc1ccccc1)C(=O)NCc1nnc(-c2ccc(OCc3cncc(F)c3)cc2)s1`, the IC50 in assay [1] stood at 1290 nM; at Mouse EL, 4410 nM. As to `O=C(CCCCCOc1cccc(Cl)c1)C(=O)NCc1nnc(-c2ccc(Oc3ccccc3)cc2)o1`, the IC50 in assay [1] was determined as 1800 nM; on Mouse EL, 457 nM. In the same order, the values of `O=C(CCCCCCc1ccccc1)C(=O)NCc1nnc(-c2ccc(OCCc3ccccc3)cc2)o1` are 139 nM and 48 nM.

`COC(=O)c1ccc(COc2ccc(-c3nnc(CNC(=O)C(=O)CCCCCCc4ccccc4)o3)cc2)o1`: the values for the concentration for half-maximal inhibition (IC50) (in assay [1]; at Mouse EL) were 340 nM and 174 nM, respectively. With `O=C(CCCCCCc1ccccc1)C(=O)NCc1nnc(-c2ccc([S+]([O-])Cc3ccccc3)cc2)o1` (centres unmarked), the IC50 in assay [1] came out at 32000 nM.

Regarding `O=C(CCCCCCc1ccccc1)C(=O)NCc1nnc(-c2ccc(OCc3cc(Cl)nc(Cl)c3)cc2)s1`, the results for the IC50 (in assay [1]; on Mouse EL) were 623 nM and 57 nM, respectively.
